Experiment [1] addresses lac repressor (LacI) (Escherichia coli, UniProt P03023, G265D).
The target of experiment [2] is lac repressor (LacI) (Escherichia coli, UniProt P03023, R195H/G265D/A337D).
Experiment [3] addresses lac repressor (LacI) (Escherichia coli, UniProt P03023, R195H).
In experiment [4] the target is lac repressor (LacI) (Escherichia coli, UniProt P03023, R195H/G265D).
Experiment [5] has as its target lac repressor (LacI) (Escherichia coli, UniProt P03023).

By UniProt entry, the sequences of proteins in these tests, tags left out.
UniProt P03023, whole entry G265D: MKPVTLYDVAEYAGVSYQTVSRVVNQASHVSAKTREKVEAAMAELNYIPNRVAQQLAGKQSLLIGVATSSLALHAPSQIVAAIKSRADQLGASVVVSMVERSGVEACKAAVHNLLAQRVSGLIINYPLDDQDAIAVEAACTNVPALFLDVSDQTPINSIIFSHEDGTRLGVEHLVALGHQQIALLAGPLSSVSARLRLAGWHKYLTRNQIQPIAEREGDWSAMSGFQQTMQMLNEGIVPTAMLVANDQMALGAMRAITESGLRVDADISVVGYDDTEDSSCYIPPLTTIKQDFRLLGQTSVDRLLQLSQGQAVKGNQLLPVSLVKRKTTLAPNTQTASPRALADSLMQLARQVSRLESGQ
UniProt P03023, whole entry R195H/G265D/A337D: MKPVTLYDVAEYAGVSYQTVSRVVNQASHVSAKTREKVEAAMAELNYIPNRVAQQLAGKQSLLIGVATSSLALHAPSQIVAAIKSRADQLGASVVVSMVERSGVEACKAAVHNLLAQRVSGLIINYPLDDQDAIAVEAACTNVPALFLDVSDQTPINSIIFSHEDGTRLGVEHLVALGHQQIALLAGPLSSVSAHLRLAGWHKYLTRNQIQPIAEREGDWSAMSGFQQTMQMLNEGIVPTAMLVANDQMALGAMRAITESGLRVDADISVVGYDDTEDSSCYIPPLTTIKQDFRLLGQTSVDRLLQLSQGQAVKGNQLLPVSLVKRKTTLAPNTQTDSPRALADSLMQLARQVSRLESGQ
UniProt P03023, whole entry R195H: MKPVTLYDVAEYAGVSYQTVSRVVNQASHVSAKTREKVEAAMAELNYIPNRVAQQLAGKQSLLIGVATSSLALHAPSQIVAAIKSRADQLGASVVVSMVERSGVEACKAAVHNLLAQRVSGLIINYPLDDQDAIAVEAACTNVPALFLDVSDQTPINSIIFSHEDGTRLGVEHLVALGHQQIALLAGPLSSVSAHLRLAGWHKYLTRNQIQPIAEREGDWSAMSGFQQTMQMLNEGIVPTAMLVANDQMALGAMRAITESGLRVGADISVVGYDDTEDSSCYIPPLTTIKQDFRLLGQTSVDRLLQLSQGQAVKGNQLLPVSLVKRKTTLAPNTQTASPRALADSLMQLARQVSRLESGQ
UniProt P03023, whole entry R195H/G265D: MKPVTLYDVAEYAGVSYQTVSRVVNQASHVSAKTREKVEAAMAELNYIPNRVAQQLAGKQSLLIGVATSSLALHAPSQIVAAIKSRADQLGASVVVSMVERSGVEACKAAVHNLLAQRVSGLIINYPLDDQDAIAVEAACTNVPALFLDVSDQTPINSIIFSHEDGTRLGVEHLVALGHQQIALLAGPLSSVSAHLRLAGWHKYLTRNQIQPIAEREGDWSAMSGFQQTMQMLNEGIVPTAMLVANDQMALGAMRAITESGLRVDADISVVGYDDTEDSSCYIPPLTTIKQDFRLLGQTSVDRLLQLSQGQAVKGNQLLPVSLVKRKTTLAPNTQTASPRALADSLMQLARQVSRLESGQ
UniProt P03023, whole entry: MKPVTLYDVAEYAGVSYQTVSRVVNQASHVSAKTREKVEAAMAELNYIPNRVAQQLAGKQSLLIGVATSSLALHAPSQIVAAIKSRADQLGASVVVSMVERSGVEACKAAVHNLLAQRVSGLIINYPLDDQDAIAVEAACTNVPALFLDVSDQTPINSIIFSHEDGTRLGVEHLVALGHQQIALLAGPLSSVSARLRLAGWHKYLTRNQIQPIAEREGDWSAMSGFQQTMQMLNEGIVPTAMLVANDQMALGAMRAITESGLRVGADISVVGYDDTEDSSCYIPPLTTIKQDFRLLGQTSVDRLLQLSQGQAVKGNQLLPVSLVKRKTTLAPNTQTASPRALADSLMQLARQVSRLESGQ

This note sets out measurements from paper PMC8009258, “The genotype‐phenotype landscape of an allosteric protein” (Molecular Systems Biology, 2021).

Consider `CC(C)S[C@@H]1O[C@H](CO)[C@H](O)[C@H](O)[C@H]1O` [IPTG], for which the EC50 result in experiment [1] is on record as “The single‐substitution R195H (orange) or G265D (green) results in sigmoidal dose‐response curves similar to wild‐type LacI”; in experiment [3] it was “The single‐substitution R195H (orange) or G265D (green) results in sigmoidal dose‐response curves similar to wild‐type LacI”; in experiment [5], “Dose‐response curves measured with flow cytometry for selected LacI variants: wild‐type LacI (gray “X”s)”. Further, the “IPTG dose-response (band-stop) of LacI-regulated YFP by flow cytometry in E. col” value in experiment [2] was “a strong band‐stop variant identified from the library with only three amino acid substitutions (R195H/G265D/A337D; blue diamonds)”; in experiment [4], “the combination of two substitutions (R195H/G265D) gave rise to the band‐stop phenotype”.
